Results as given in EP4825852A1, “COMPOUND HAVING PROTEIN TYROSINE KINASE BTK-DEGRADING ACTIVITY, AND PREPARATION METHOD THEREFOR AND USE THEREOF” (dated 2026).

Protein sequences, listed by entry. Tags and fused reporters are not part of them.
UniProt P35991, whole entry: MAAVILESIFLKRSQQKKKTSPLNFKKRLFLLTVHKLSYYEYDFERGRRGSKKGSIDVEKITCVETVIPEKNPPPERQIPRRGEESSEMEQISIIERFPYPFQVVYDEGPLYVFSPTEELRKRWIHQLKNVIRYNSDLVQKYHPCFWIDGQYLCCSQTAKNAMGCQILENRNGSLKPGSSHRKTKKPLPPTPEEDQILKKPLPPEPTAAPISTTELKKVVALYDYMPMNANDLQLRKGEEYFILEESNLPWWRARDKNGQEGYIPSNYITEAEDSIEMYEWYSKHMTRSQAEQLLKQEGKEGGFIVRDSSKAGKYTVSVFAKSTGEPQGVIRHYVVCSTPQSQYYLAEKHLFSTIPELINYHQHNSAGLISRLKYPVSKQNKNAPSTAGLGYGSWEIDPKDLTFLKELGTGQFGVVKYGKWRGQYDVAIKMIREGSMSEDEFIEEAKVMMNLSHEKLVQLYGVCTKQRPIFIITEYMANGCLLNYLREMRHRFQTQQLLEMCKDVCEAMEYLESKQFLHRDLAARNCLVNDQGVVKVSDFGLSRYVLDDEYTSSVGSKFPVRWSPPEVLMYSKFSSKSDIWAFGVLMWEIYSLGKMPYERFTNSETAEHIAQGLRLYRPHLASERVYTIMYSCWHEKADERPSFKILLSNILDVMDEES

Key:
TMD8 cells = experiment: TMD8 cell proliferation assay (CTG); settings: read-out: TMD8 IC50, 72 h incubation, cell growth inhibition
Method: (§1) Mino or TMD8 cells were cultured in RPMI 1640 medium containing 10% fetal bovine serum (Gibco). After reaching the logarithmic growth phase, cells were collected, counted and seeded into 96-well plates at 2000 cells/well. Following overnight incubation, compounds were added to reach final concentrations of 1 µM, 200 nM, 40 nM, 8 nM, 1.6 nM, 0.32 nM, 0.064 nM, 0.0128 nM, 0.00256 nM and 0.00051 nM, with a final DMSO concentration of 0.2%. 0.2% DMSO and blank RPMI 1640 medium (without cells and compounds) were set as vehicle control and negative control, respectively. Two replicates were set for each concentration. After the test compound was mixed, the 96-well plate was placed in a 37°C, 5% CO2 incubator and cultured (Mino cells were incubated for 96 h, REC-1 and TMD8 cells were incubated for 72 h). After incubation, the plates were placed at room temperature, 50 µL of CTG reagent was added, and the plates were shaken for 2 min and incubated at room temperature for 10 min. The luminescence signal (RLU) in each well was measured using a microplate reader to calculate the cell growth inhibition rate, followed by fitting a dose-response curve to determine the half-inhibitory concentration (IC50). Table 1: IC50 of the exemplary compounds against TMD8/Mino cells

REC-1-BTK-L528W cells = experiment: BTK mutant cell inhibitory activity assay (Cell Titer-Glo); settings: read-out: REC-1-BTK-L528W IC50, 72 h, cell growth inhibition
Method: (§2) REC-1-BTK-L528W or Baf3-BTK-T474I cells in the logarithmic growth phase were seeded into 96-well plates at a density of 3 × 10^3 cells per well. Compound solutions at various concentrations (starting from 2 µM with five-fold serial dilution) were added. The plates were gently mixed and incubated in a cell culture incubator for 72 h. Subsequently, 50 µL Cell Titer-Glo reagent was added. The plates were shaken for 2 min and incubated at room temperature for 10 min. The luminescence signal (RLU) in each well was measured using a microplate reader to calculate the cell growth inhibition rate, followed by fitting a dose-response curve to determine the half-inhibitory concentration (IC50). Table 2: IC50 of the exemplary compounds against BTK-L528W/T474I mutant cells

BTK = BTK (Mus musculus, UniProt P35991); experiment: Single oral administration test in mice, BTK protein level by Western blotting; settings: single oral dose of 10 mpk, relative to vehicle group; for 6h whole blood BTK Deg%: whole blood at 6 h; for 24h whole blood BTK Deg%: whole blood at 24 h; for 24h spleen BTK Deg%: spleen at 24 h
Method: Mice were administered a single oral dose of 10 mpk. On the day of administration, the compound was dissolved in a mixture (10% DMSO, 40% PEG 400, 5% Tween 80 and 45% saline) and vortexed until a clear, transparent solution was obtained. Following oral gavage, whole blood samples were collected at 6 h and 24 h, and spleen samples were collected at 24 h. BTK protein levels were analyzed by Western blotting.
Whole blood samples were pretreated using a whole blood protein extraction kit. According to the manufacturer's instructions, 100× PMSF was added to the protein extract and vortexed thoroughly. An equal volume of the protein extract was combined with the whole blood sample, mixed well, and shaken on ice for 20 min. A tube was inserted into the centrifuge column, and the extract solution was pipetted into the column. Centrifugation was performed at 4 °C and 10,000 × g for 3-5 min. The eluate from the collection tube was collected as total whole blood protein.
Mouse spleen samples were minced, and 150 µL of RIPA lysis buffer containing PMSF was added. The tissues were homogenized on ice using a tissue homogenizer and incubated on ice for an additional 10-20 min for lysis. The samples were centrifuged at 4 °C and 13,000 × g for 30 min. The supernatant was transferred to a fresh centrifuge tube to obtain total spleen protein.
Protein concentration was determined by the BCA assay. After heat denaturation, proteins were separated by sodium dodecyl sulfate-polyacrylamide gel electrophoresis and transferred onto PVDF membranes. The membranes were incubated with blocking buffer for 1 h at room temperature, followed by overnight incubation with primary antibodies against BTK and GAPDH (both diluted 1:1000) at 4°C. After three washes with TBST, HRP-conjugated rabbit anti-goat secondary antibody (diluted 1:10,000) was applied and incubated for 1 h at room temperature. The membranes were then washed three times with TBST. ECL chemiluminescent solution was added, and images were acquired using a gel imaging system. The grayscale values of target protein bands were quantified with Image-Pro Plus 6.0 software. Relative BTK protein levels were compared with those of the vehicle group, and the degradation rate (Deg%) was calculated. Table 3 BTK degradation rate in whole blood/spleen of mice after single administration of exemplary compounds of the present application

Mino cells = experiment: Mino cell proliferation assay (CTG); settings: read-out: Mino IC50, 96 h incubation, cell growth inhibition
Method: as §1

Baf3-BTK-T474I cells = experiment: BTK mutant cell inhibitory activity assay (Cell Titer-Glo); settings: read-out: Baf3-BTK-T474I IC50, 72 h, cell growth inhibition
Method: as §2

MCL patients = settings: cited from earlier work

6h whole blood BTK Deg% (BTK) | 24h whole blood BTK Deg% (BTK) | SMILES | IC50 (TMD8 cells) [nM] | IC50 (Mino cells) [nM] | other results
B (60-80%) | A (>80%) | NC(=O)c1ncc(N[C@@H]2CCCN(C(=O)C3CC3)C2)nc1Nc1ccc(N2CCC(N3CCC(n4ncc5c(N6CCC(=O)NC6=O)cccc54)CC3)CC2)cc1 | 0.4 |  | IC50 (REC-1-BTK-L528W cells): 29 nM
B (60-80%) | B (60-80%) | CN1CCN([C@@H]2CCCN(c3cnc(C(N)=O)c(Nc4ccc(C5CCN(CC6CCN(c7ccc(C(=O)N[C@H]8CCC(=O)NC8=O)nc7)CC6)CC5)cc4)n3)C2)C1=O | 2.2 | 11.4 | IC50 (Baf3-BTK-T474I cells): 12.6 nM; IC50 (REC-1-BTK-L528W cells): 29 nM; 24h spleen BTK Deg% (BTK): B (60-80%)
B (60-80%) | A (>80%) | NC(=O)c1ncc(N2CCC[C@@H](N3CCOC3=O)C2)nc1Nc1ccc(C2CCN(CC3CN(c4cc(F)c(C5CCC(=O)NC5=O)c(F)c4)C3)CC2)cc1 (single isomer, unassigned) [Example 22] | 0.3 |  | IC50 (Baf3-BTK-T474I cells): 1.15 nM; IC50 (REC-1-BTK-L528W cells): 1 nM; 24h spleen BTK Deg% (BTK): B (60-80%)
 |  | COC(=O)N1CCC[C@@H](Nc2cnc(C(N)=O)c(Nc3ccc(N4CCC(N5CCC(n6ncc7c(N8CCC(=O)NC8=O)cccc76)CC5)CC4)cc3)n2)C1 | 0.4 |  | 
 |  | CN1CCN([C@@H]2CCCN(c3cnc(C(N)=O)c(Nc4ccc(C5CCN(CC6CN(c7cc(F)c(C8CCC(=O)NC8=O)c(F)c7)C6)CC5)cc4)n3)C2)C1=O (single isomer, unassigned) [Example 21] | 4.7 |  | 
A (>80%) | A (>80%) | CN1CCN([C@@H]2CCCN(c3cnc(C(N)=O)c(Nc4ccc(C5CCN(CC6CN(c7cc(F)c(C8CCC(=O)NC8=O)c(F)c7)C6)CC5)cc4)n3)C2)C1=O (stereo partly drawn) | 1.4 | 7.73 | 
 |  | CN1CCN([C@@H]2CCCN(c3cnc(C(N)=O)c(Nc4ccc(C5CCN(C6CN(c7cc(F)c(C8CCC(=O)NC8=O)c(F)c7)C6)CC5)cc4)n3)C2)C1=O (stereo partly drawn) | 3.1 | 0.57 | 
 |  | CN1CCN([C@@H]2CCCN(c3cnc(C(N)=O)c(Nc4ccc(C5CCN(CC6CCN(c7ccc(C(=O)N[C@H]8CCC(=O)NC8=O)nc7)CC6)CC5)cc4)n3)C2)C1=S | 9.7 | 2.58 | 
A (>80%) | A (>80%) | CN(c1cnc(C(N)=O)c(Nc2ccc(C3CCN(CC4CN(c5cc(F)c(C6CCC(=O)NC6=O)c(F)c5)C4)CC3)cc2)n1)[C@@H]1CCCN(C(=O)C2CC2)C1 (stereo partly drawn) | 1.3 | 1.95 | 
 |  | CN(c1cnc(C(N)=O)c(Nc2ccc(C3CCN(CC4CN(c5cc(F)c(C6CCC(=O)NC6=O)c(F)c5)C4)CC3)cc2)n1)[C@@H]1CCCN(S(C)(=O)=O)C1 (stereo partly drawn) | 0.3 |  | 
 |  | CN1CCN([C@@H]2CCCN(c3cnc(C(N)=O)c(Nc4ccc(C5CCN(C(=O)CN6CCC(n7ccc8c(N9CCC(=O)NC9=O)cccc87)CC6)CC5)cc4)n3)C2)C1=O | 0.8 | 3.07 | 
 |  | NC(=O)c1ncc(N2CCC[C@@H](N3CCN(C4CC4)C3=O)C2)nc1Nc1ccc(C2CCN(CC3CN(c4cc(F)c([C@@H]5CCC(=O)NC5=O)c(F)c4)C3)CC2)cc1 (single isomer, unassigned) | 1.5 |  | 
 |  | Cc1c(NC(=O)c2ccc(C(C)(C)O)cc2F)cc(F)cc1-c1cc(Nc2ccc(N3CCN(CC4CN(c5cc(F)c(C6CCC(=O)NC6=O)c(F)c5)C4)C[C@@H]3C)cn2)c(=O)n(C)c1 (stereo partly drawn) | 3.9 |  | 
 |  | Cc1c(NC(=O)c2ccc(C(C)(C)O)cc2F)cc(F)cc1-n1cc(Nc2ccc(N3CCN(CC4CN(c5cc(F)c(C6CCC(=O)NC6=O)c(F)c5)C4)C[C@@H]3C)cn2)c(C(N)=O)n1 (stereo partly drawn) |  | 12.7 | 
 |  | CN1CCN([C@@H]2CCCN(c3cnc(C(N)=O)c(Nc4ccc(C5CCN(CC6CN(c7cc(F)c(C8CCC(=O)NC8=O)c(F)c7)C6)CC5)cc4)n3)C2)C1=O (single isomer, unassigned) [Example 20] | 0.4 |  | IC50 (Baf3-BTK-T474I cells): 1.75 nM; IC50 (REC-1-BTK-L528W cells): 0.35 nM
 |  | CN1CCN([C@@H]2CCCN(c3cnc(C(N)=O)c(Nc4ccc(N5CCC(CN6Cc7cc8c(cc7C6)C(=O)N(C6CCC(=O)NC6=O)C8=O)CC5)cc4)n3)C2)C1=O (stereo partly drawn) | 8.4 |  | 
C (<60%) | C (<60%) | COC(=O)N1CCC[C@@H](N(C)c2cnc(C(N)=O)c(Nc3ccc(N4CCC(N5CCC(n6ncc7c(N8CCC(=O)NC8=O)cccc76)CC5)CC4)cc3)n2)C1 | 0.3 |  | IC50 (Baf3-BTK-T474I cells): 4.17 nM; IC50 (REC-1-BTK-L528W cells): 5.38 nM; 24h spleen BTK Deg% (BTK): B (60-80%)
 |  | CN1CCN([C@@H]2CCCN(c3cnc(C(N)=O)c(Nc4ccc(C5CCN(C(=O)CN6Cc7cc8c(cc7C6)C(=O)N(C6CCC(=O)NC6=O)C8=O)CC5)cc4)n3)C2)C1=O (stereo partly drawn) | 8.9 | 9.95 | 
 |  | NC(=O)c1ncc(N[C@@H]2CCCN(C(=O)C3CC3)C2)nc1Nc1ccc(C2CCN(CC3CN(c4cc(F)c(C5CCC(=O)NC5=O)c(F)c4)C3)CC2)cc1 (stereo partly drawn) | 1.3 | 1.56 | 
 |  | NC(=O)c1ncc(N2CCC[C@@H](N3CCOC3=O)C2)nc1Nc1ccc(C2CCN(CC3CN(c4cc(F)c(C5CCC(=O)NC5=O)c(F)c4)C3)CC2)cc1 (single isomer, unassigned) [Example 23] | 3.4 |  | 
C (<60%) | B (60-80%) | CN(c1cnc(C(N)=O)c(Nc2ccc(N3CCC(N4CCC(n5ncc6c(N7CCC(=O)NC7=O)cccc65)CC4)CC3)cc2)n1)[C@@H]1CCCN(C(=O)C2CC2)C1 | 0.3 |  | IC50 (Baf3-BTK-T474I cells): 3.13 nM; 24h spleen BTK Deg% (BTK): C (<60%)
 |  | COc1ccc(F)cc1C(=O)NCc1ccc(-c2nn([C@@H](C)C(F)(F)F)c(N)c2C(N)=O)cc1 |  |  | complete response (CR) rate (MCL patients): 25%; objective response rate (ORR) (MCL patients): 51%; partial response (PR) rate (MCL patients): 26%
